Test system: CC(=O)O
Assay: purified protein

Substance | Km [µM] | kcat [s⁻¹] | kcat/Km [M⁻¹ s⁻¹]
ACS (S. cattleya) (Streptantibioticus cattleyicolor NRRL 8057 = DSM 46488) | 9 ± 1 | 40 | 4.4e+06
ACS (E. coli) (Escherichia coli K-12) | 6 ± 1 | 1.04 | 170000

From article PMC5818262 (ACS chemical biology, 2012)
